Measured affinities in a library of Ab-14 light chain variants

Reference: Engelhart et al. 2022, doi:10.1038/s41597-022-01779-4. File: FLAb, binding data.

The target is the same throughout: PDVDLGDISGINAS, from the HR2 region of SARS-CoV-2 spike.

Parent: Ab-14, a human scFv built as VH, the linker GGGGSGGGGSGGGGS, VL. Only the CDRs of the light chain vary.
VH: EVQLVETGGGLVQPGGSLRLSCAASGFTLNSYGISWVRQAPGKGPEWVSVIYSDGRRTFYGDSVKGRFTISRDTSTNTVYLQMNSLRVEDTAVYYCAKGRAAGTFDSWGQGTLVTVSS
VL: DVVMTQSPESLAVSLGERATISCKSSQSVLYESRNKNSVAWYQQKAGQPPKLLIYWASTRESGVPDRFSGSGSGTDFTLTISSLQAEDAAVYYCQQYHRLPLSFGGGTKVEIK

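The parent was found by panning a naive human phage display library on the peptide. The library (AAYL50) carries one to three amino acid substitutions per variant, with no insertions or deletions. The scFvs were displayed on barcoded MATa yeast, the peptide on MATalpha yeast. After mating in shaken culture at 30 °C for 16 h, diploids were selected and their barcode pairs sequenced. Scores were corrected for input abundance and mapped to Kd with protein pairs of known affinity run in the same pool. Each pool was mated in three replicate cultures.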

Variants are written as CDR1, CDR2 and CDR3 of the light chain (limits as in the source). Parent: KSSQSVLYESRNKNSVA, WASTRES, QQYHRLPLS.
Numbers give log10(Kd / nM), so 0 is 1 nM and 3 is 1 µM. Smaller is tighter.
The mean shown is taken over the replicates in which the pair was detected.
A pair that was not seen in any replicate is written "not detected"; this usually means weak binding, but a binder can also be missed.
As a blank, each scFv also met three strains without target: over library AAYL50, 18% of these pairings were detected, typically at 4.19 and seldom below 2.99.

CDR-L1 | CDR-L2 | CDR-L3 | log10 Kd (nM), mean | replicates with signal
DSIQSVLYESRNKNSVA | WASTRES | QQYHRLPHS | 4.31 | 3/3
KSSQSVLYDSRNKNSVA | WQSTRES | QQYHRLPLS | 1.90 | 3/3
KSSQSVLYESRNKNSVA | WWSTRES | QHYHQLPLS | 3.87 | 1/3
KSSQDVLYEHRNKNSVA | WASTRES | QQYHRLPMS | 3.59 | 2/3
ASSQSVLYESSNKNSVA | WASTRES | QQYHRLPTS | 1.49 | 3/3
KSSQSVLGESRNKNSVA | WASTRES | QLYHRLPLS | 4.77 | 3/3
RSSQSVLYEVRNDNSVA | WASTRES | QQYHRLPLS | 1.72 | 3/3
KTSQSVLYESRNKNSVA | WASTREP | QQYHRLPKS | 2.76 | 1/3
KSSQSVLYPSRNKNSVA | WASTREP | QQYHRLPLY | 2.22 | 3/3
KSSQSVMYESRNKNSVA | SASTRER | QQYHRLPLS | 0.08 | 3/3
KSSQSRLYRSRGKNSVA | WASTRES | QQYHRLPLS | 2.64 | 2/3
KSPESVLMESRNKNSVA | WASTRES | QQYHRLPLS | 0.52 | 3/3
KSSQKVLYEGRNKNSVA | WASTRES | QQYHRLPVS | 3.58 | 2/3
KSSQSVKYESRNKNSVW | WASTRES | QQYHRLDLS | 3.84 | 2/3
KSSQSVDYESRNKNSVA | YSSTRES | QQYHRLPLS | 0.65 | 3/3
KSSQSVLYWPRNKNSVA | WASTRES | GQYHRLPLS | not detected | 0/3
KSSQSVLYESRNKVSVA | WASTRES | QQYQRLPQS | 3.60 | 3/3
KSSQSVLIESRNKNSVA | WASHREM | QQYHRLPLS | not detected | 0/3
KSSQSVLYWSRNKNSVA | WDSTRES | QQYHRLPLV | 4.46 | 1/3
KSSTSVLYNSRNKNSVA | WASTRFS | QQYHRLPLS | 2.18 | 3/3
KSSQTVLYESRNKNSVA | WASTIES | QQYHRLQLS | not detected | 0/3
KSSQSVLYESRNKNWVA | WASTGGS | QQYHRLPLS | 4.26 | 2/3
KSSQSVLYESRNKNSVA | WASTRQS | QQYHRLPLD | 6.25 | 1/3
KNSQSRLYESRNKNSVA | WASTRES | QQPHRLPLS | 1.57 | 3/3
GSSQSVLYESRSKNSVG | WASTRES | QQYHRLPLS | not detected | 0/3
KSGQSVLYESRNKNSVA | WQSTRES | QQYHPLPLS | 2.89 | 3/3
KSDQSVLYESRNKNSVA | SASTMES | QQYHRLPLS | not detected | 0/3
KSSQVVLYETRNKMSVA | WASTRES | QQYHRLPLS | 2.63 | 3/3
KSSVSVLYLSRNKNSVA | WASTRES | QQYHRLQLS | 3.49 | 3/3

Continued, with the values leading:

log10 Kd (nM), mean | replicates with signal | CDR-L1 | CDR-L2 | CDR-L3
1.11 | 3/3 | KSSQSVLYQSRNKNSVA | WASTRED | QQYHRLPLS
5.26 | 1/3 | KWSQNVLYESRNKNSVA | WASTRES | QQDHRLPLS
4.89 | 1/3 | KSSQSVLYESRNKNSVA | WASWRES | QPYHRLPFS
0.87 | 3/3 | KSSQSVLYESRNKNSVA | WASTRES | QQYHGLLPS
1.40 | 3/3 | KSSQSVLYESRNKNSVA | WASTRGT | QQFHRLPLS
2.08 | 3/3 | KSSQKVLYESRNKNSVA | WASTRES | FQYHRLPLC
0.41 | 3/3 | DFSQSKLYESRNKNSVA | WASTRES | QQYHRLPLS
not detected | 0/3 | KSSQCVLYEVRNKNSVA | WASTREA | QQYHRLPLS
2.07 | 3/3 | GSSTSVLYETRNKNSVA | WASTRES | QQYHRLPLS
0.95 | 3/3 | KSSDSVTYESRNKNSVA | WASTRES | QQYHRLPLS
0.62 | 3/3 | KSSQPVLNESRNKNSVA | WADTRES | QQYHRLPLS
not detected | 0/3 | KSSYSVLYESRNKNSVA | WASTRES | QEYHNLPLS
4.33 | 2/3 | KSSQSVLYESRNLNSVG | WAGTRES | QQYHRLPLS
not detected | 0/3 | KSSQSVLYESREKNSVA | WASTRES | LVYHRLPLS
1.95 | 3/3 | KSWMSVLYESRNKNSVA | WASTRES | QQYHRLPLS
2.07 | 1/3 | KSSQSVLYESRNKNSVA | WRSTRES | QQYHRLNLS
2.28 | 3/3 | KSSQSVLYESLNYNSVA | WASTRER | QQYHRLPLS
2.61 | 2/3 | KSSQSVLYESRNKNSVA | WASTRQS | QQYHGLPLT
1.60 | 3/3 | NSSQSVLYESRNKNSVA | TASTRQS | QQYHRLPLS
4.71 | 1/3 | KSSQSVLYESRNKNSVA | FASTRES | QQYHMLRLS
not detected | 0/3 | KSSQSVLYESRNKNSVA | WASTRES | QQYHRLCLA
1.83 | 3/3 | KSSQWVLYESDNLNSVA | WASTRES | QQYHRLPLS
0.85 | 3/3 | KSSQEVLYESENKFSVA | WASTRES | QQYHRLPLS
not detected | 0/3 | KSSQSTLYESRNKNQVA | WASTRES | PQYHRLPLS
0.72 | 3/3 | KSSQSVLYDSRNKYSVA | WADTRES | QQYHRLPLS
0.86 | 3/3 | KSDQSVLYNSRNWNSVA | WASTRES | QQYHRLPLS
4.62 | 3/3 | KSSQSVLYESRNKNSVA | AASTYES | QWYHRLPLS
not detected | 0/3 | ASSQSNLYESRNKNSVA | WASTRES | QQYHYLPLS
1.52 | 3/3 | KSSQSVLYESRKKNSVA | WASTRDS | QQYHRLPLW

Repeated from above, the 6 best binders with a signal in all replicates:

| CDR-L1 | CDR-L2 | CDR-L3 | log10 Kd (nM), mean | replicates with signal |
|---|---|---|---|---|
| KSSQSVMYESRNKNSVA | SASTRER | QQYHRLPLS | 0.08 | 3/3 |
| DFSQSKLYESRNKNSVA | WASTRES | QQYHRLPLS | 0.41 | 3/3 |
| KSPESVLMESRNKNSVA | WASTRES | QQYHRLPLS | 0.52 | 3/3 |
| KSSQPVLNESRNKNSVA | WADTRES | QQYHRLPLS | 0.62 | 3/3 |
| KSSQSVDYESRNKNSVA | YSSTRES | QQYHRLPLS | 0.65 | 3/3 |
| KSSQSVLYDSRNKYSVA | WADTRES | QQYHRLPLS | 0.72 | 3/3 |